From ChEMBL document CHEMBL3352119, “SAR studies of differently functionalized chalcones based hydrazones and their cyclized derivatives as inhibitors of mammalian cathepsin B and cathepsin H” (Bioorg Med Chem, 2014)

Target: Cathepsin B (Capra hircus) (UniProt H9B8T9)
Assay: Inhibition of goat liver cathepsin B assessed as enzyme activity at 10 uM using BANA substrate pre-incubated 30 mins before substrate addition by colorimetry

**Q.** Which Activity does the source give for Brc1ccc(C2CC(c3ccccc3)=NN2c2ccccc2)cc1 (stereo unspecified) here?
**A.** The Activity was 4.29 nmol/min/mL.
